pIC50: −log10 of the molar value.

Sequences of proteins named here, by UniProt entry; tags and fusion partners are left off. Residues count along the entry.
UniProt P00740, 227-461: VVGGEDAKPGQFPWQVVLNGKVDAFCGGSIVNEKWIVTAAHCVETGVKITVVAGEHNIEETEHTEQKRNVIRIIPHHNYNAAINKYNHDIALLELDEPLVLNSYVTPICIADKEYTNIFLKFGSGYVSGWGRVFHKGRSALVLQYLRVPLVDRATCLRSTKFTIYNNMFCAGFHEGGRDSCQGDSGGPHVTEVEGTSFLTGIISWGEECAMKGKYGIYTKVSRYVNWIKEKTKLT
UniProt P00740, 47-191 partner: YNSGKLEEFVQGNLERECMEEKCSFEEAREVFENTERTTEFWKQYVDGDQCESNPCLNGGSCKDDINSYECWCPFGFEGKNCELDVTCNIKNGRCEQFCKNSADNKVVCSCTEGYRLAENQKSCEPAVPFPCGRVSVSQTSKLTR

The test concerns the target human Factor IXa (Homo sapiens (Human), UniProt P00740). Briefly: Factor IXa enzyme assay (SPECTROFLUOR FIXa fluorogenic substrate). The format is biochemical. Particulars: human Factor IXa 2.0 μg/ml, SPECTROFLUOR FIXa 100 μM, 60 minutes at room temperature, pH 8.0. The procedure: Inhibitory activity against Factor IXa was tested using the substrate SPECTROFLUOR FIXa (American Diagnostica Inc.; 500 West Avenue, Stamford, Conn. 06902 USA; Pr. No. 299F) and human Factor IXa (American Diagnostica Inc.; Pr. No. 449b). Test substances dissolved in buffer A (50 mM α,α,α-tris(hydroxymethyl)methylamine (Tris), 100 mM NaCl, 5 mM CaCl2, 15% (v/v) ethylene glycol, pH 8.0) were mixed with Factor IXa (2.0 μg/ml final concentration). The enzyme reaction was started by addition of SPECTROFLUOR FIXa (100 μM final concentration). After incubation for 60 minutes at room temperature, the reaction was stopped by the addition of 20% (v/v) acetic acid solution, and then fluorescence value measured (Excitation Wavelength: 355 nm, Emission Wavelength; 460 nm) in a microtiter plate reader (ARVO 1420 Multilabel Counter; PerkinElmer).
IC50 was calculated from a dilution series of the test substance with the aid of the software, Symix Assay Explorer (Symyx Technologies, Inc.).

In the case of `Nc1noc2cc(NC(=O)C(O)c3cccn(-c4ccc(OC(F)(F)F)cc4)c3=O)ccc12` (racemic) [Example 2, (±)-N-(3-aminobenzo[d]isoxazol-6-yl)-2-hydroxy-2-(2-oxo-1-(4-(trifluoromethoxy)phenyl)-1,2-dihydropyridin-3-yl)acetamide], the pIC50 is 5.07.

As a reminder, the pIC50 is −log10 of the IC50, conventionally taken in molar units.

For the origin of these results see patent US8980916B2, “Factor IXa inhibitors” (Merck Sharp & Dohme Corp., priority 2011, dated 2015).
